Biological target: Bruton's Tyrosine Kinase (BTK), inactivated state (Homo sapiens (Human), UniProt Q06187)
Assay: Bruton's Tyrosine Kinase (BTK) Inhibition TR-FRET (Time Resolved FRET) competition assay
Format: binding
Details: Kinase Tracer 178, BTK-Eu, 18-24 h at 14° C.
Protocol: Bruton's Tyrosine Kinase (BTK) Inhibition TR-FRET (Time Resolved FRET) Assay
This BTK competition assay measures compound potency (IC50) for the inactivated state of Bruton's Tyrosine Kinase using FRET (Forster/Fluorescence Resonance Energy Transfer) technology. The BTK-Eu complex was incubated on ice one hour prior to use at a starting concentration of 50 nM BTK-Bioease™: 10 nM Eu-streptavidin (Perkin-Elmer Catalog# AD0062). The assay buffer consisted of 20 mM HEPES (pH 7.15), 0.1 mM DTT, 10 mM MgCl2, 0.5 mg/ml BSA with 3% Kinase Stabilizer (Fremont Biosolutions, Catalog # STB-K02). After 1 h, the reaction mixture from above was diluted 10 fold in assay buffer to make 5 nM BTK: 1 nM Eu-Streptavidin complex (donor fluorophore). […]
After the incubation the plates were read on a BMG Pherastar Fluorescent plate reader (or equivalent) and used to measure the emission energy from the europium donor fluorophore (620 nm emission) and the FRET (665 nm emission). […] Percent of maximal FRET was calculated using following equation: % max FRET=100×[(FSRcmpd−FSRmean min)/(FSRmean max−FSRmean min)] where FSR=FRET Signal ratio. % Max FRET curves were plotted in Activity Base (Excel) and the IC50(%), hill slope, z′ and % CV were determined. […]

Chains of the proteins cited; added tags and fusions are not shown. Lines headed by an entry give the natural chain unless they say otherwise; changes in a name come on top.
UniProt Q06187: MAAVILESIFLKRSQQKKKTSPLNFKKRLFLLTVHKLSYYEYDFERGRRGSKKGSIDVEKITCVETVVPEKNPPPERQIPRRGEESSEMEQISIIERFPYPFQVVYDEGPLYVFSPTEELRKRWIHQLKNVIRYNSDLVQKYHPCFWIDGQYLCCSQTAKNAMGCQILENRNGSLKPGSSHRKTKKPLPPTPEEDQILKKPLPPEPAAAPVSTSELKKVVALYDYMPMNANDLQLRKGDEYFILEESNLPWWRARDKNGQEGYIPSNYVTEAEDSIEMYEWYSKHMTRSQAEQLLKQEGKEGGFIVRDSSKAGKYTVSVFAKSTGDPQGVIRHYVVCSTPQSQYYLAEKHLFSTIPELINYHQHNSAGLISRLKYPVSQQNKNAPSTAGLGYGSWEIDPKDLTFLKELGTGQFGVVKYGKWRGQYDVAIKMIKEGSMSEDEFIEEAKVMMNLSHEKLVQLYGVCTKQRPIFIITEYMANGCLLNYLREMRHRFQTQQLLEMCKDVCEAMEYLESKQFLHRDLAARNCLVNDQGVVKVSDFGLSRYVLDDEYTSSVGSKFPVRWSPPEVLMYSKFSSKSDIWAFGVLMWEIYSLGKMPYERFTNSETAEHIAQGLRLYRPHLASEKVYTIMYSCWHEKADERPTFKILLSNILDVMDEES

Compound	IC50 [nM]
NC(=O)c1nc(N2CCC[C@@H](NC(=O)N3Cc4ccccc4C3)C2)sc1Nc1ccccn1 [Compound 1, 1,3-Dihydro-isoindole-2-carboxylic acid {(R)-1-[4-carbamoyl-5-(pyridin-2-ylamino)-thiazol-2-yl]-piperidin-3-yl}-amide]	254
NC(=O)c1nc(N2CCC[C@@H](NC(=O)CNc3cccc(Cl)c3)C2)sc1Nc1ccccn1 [Compound 11, 2-{(R)-3-[2-(3-Chloro-phenylamino)-acetylamino]-piperidin-1-yl}-5-(pyridin-2-ylamino)-thiazole-4-carboxylic acid amide]	5370
